2 molecules from patent publication US20100076003A1, “5-OXAZOLIDIN-2-ONE SUBSTITUTED 1,3,8-TRIAZASPIRO[4.5]DECAN-4-ONE DERIVATIVES USEFUL AS ORL-1 RECEPTOR MODULATORS” (published 2010) can be followed below.

The structures appear in SMILES notation.

The target in one assay is Mu (μ) opioid receptor (Homo sapiens, UniProt P35372). The assay can be described thus: Filtration binding assay, mu opioid receptor, DAMGO-3H ligand. Particulars: 1D4 cell line membrane, 0.8993 nM DAMGO-3H.
In assay [1] the target is Kappa (κ) opioid receptor (Homo sapiens, UniProt P41145). As to the kind of experiment: Filtration binding assay, kappa opioid receptor, U-69,593-3H ligand. Particulars: 2C2 cell line membrane, 2.76 nM U-69,593-3H.
Assay [2] deals with Delta (δ) opioid receptor (Homo sapiens, UniProt P41143). The assay can be described thus: Filtration binding assay, delta opioid receptor, DPDPE-3H ligand. Particulars: read-out: Delta Ki; 2D4 cell line membrane, 2.44 nM DPDPE-3H; mean if tested more than once.

Turning to `O=C1NC[C@@H](CN2CN(c3ccc(F)cc3)C3(CCN([C@@H]4Cc5cccc6cccc4c56)CC3)C2=O)O1`, the IC50 is 160 nM at Mu (μ) opioid receptor (read-out: Mu IC50 (cell in Ki column marked IC50), value noted as IC50 in the cell) and 510 nM in assay [1] (read-out: Kappa IC50 (cell in Ki column marked IC50), value noted as IC50 in the cell).
For `O=C1NC[C@H](CN2CN(c3ccc(F)cc3)C3(CCN(CC4CCCCCCC4)CC3)C2=O)O1`, the Ki was over 5000 nM in assay [2]; 60 nM on Mu (μ) opioid receptor (read-out: Mu Ki, mean if tested more than once); 130 nM in assay [1] (read-out: Kappa Ki, mean if tested more than once).
